Columns and labels:
Format in all cases: cell-based
[1] = molecular target: GluN1/GluN2C NMDARs (Rattus norvegicus, UniProt P35439+Q00961); test: Two-electrode voltage-clamp recordings, Xenopus laevis oocytes expressing GluN1/GluN2C; conditions: saturating glutamate/glycine 100/30 µM; mean ± SEM
[2] = molecular target: T1, GluN1/GluN2D NMDARs (Rattus norvegicus, UniProt P35439+Q62645); test: Two-electrode voltage-clamp recordings, Xenopus laevis oocytes expressing GluN1/GluN2D; conditions: for Maximal Degree of Modulation (% of control): mean ± SEM; for IC50: read-out: IC50 (µM) [conf. int.], glutamate/glycine 100/30 µM, no second modulator (+EU1794-27 0 µM)
[3] = molecular target: T1, GluN1/GluN2D NMDARs; test: Whole cell patch-clamp recordings, HEK293 cells expressing GluN1/GluN2D; conditions: 10 µM; 100/30 µM glutamate/glycine
[4] = molecular target: GluN1/GluN2B NMDARs (Rattus norvegicus, UniProt P35439+Q00960); test: Two-electrode voltage-clamp recordings, Xenopus laevis oocytes expressing GluN1/GluN2B; conditions: saturating glutamate/glycine 100/30 µM; mean ± SEM
[5] = molecular target: GluN1/GluN2A NMDARs (Rattus norvegicus, UniProt P35439+Q00959); test: Two-electrode voltage-clamp recordings, Xenopus laevis oocytes expressing GluN1/GluN2A; conditions: saturating glutamate/glycine 100/30 µM; mean ± SEM
[6] = saturating glutamate/glycine 100/30 µM

Chains of the proteins cited; added tags and fusions are not shown. Residues count along the entry.
UniProt Q00961, 20-1237 limits assumed: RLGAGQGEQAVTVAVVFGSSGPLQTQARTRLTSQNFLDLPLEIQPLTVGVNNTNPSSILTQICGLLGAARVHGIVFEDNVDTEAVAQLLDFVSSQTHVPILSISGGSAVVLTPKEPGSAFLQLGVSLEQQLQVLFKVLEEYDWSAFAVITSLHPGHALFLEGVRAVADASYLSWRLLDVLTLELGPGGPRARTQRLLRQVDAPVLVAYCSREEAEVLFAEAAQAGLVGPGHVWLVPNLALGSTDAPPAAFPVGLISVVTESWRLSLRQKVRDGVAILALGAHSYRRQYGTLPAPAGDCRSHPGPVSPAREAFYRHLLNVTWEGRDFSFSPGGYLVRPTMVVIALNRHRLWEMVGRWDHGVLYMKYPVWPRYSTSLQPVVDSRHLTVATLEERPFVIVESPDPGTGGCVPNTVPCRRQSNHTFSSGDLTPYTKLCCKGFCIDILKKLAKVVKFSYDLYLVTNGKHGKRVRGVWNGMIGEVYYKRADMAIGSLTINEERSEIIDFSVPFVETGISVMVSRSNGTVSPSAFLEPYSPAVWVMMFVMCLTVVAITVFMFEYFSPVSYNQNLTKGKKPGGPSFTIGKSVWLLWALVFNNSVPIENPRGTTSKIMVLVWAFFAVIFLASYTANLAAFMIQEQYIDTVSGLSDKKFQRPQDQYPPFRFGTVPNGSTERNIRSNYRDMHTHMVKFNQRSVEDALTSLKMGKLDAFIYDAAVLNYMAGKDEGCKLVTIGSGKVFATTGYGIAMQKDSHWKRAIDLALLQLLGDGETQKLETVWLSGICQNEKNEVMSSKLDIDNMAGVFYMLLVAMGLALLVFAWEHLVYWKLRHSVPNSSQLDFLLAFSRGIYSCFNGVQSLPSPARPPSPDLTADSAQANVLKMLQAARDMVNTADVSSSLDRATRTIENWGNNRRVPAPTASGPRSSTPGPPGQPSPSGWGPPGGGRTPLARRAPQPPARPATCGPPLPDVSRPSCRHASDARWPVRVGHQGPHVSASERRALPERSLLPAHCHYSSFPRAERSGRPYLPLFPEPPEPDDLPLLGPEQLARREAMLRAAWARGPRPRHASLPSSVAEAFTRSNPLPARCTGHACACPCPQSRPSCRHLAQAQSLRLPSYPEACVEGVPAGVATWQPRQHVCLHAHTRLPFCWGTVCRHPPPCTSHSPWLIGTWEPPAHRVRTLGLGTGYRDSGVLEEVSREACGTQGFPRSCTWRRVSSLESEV
UniProt Q62645, 28-1323 limits assumed: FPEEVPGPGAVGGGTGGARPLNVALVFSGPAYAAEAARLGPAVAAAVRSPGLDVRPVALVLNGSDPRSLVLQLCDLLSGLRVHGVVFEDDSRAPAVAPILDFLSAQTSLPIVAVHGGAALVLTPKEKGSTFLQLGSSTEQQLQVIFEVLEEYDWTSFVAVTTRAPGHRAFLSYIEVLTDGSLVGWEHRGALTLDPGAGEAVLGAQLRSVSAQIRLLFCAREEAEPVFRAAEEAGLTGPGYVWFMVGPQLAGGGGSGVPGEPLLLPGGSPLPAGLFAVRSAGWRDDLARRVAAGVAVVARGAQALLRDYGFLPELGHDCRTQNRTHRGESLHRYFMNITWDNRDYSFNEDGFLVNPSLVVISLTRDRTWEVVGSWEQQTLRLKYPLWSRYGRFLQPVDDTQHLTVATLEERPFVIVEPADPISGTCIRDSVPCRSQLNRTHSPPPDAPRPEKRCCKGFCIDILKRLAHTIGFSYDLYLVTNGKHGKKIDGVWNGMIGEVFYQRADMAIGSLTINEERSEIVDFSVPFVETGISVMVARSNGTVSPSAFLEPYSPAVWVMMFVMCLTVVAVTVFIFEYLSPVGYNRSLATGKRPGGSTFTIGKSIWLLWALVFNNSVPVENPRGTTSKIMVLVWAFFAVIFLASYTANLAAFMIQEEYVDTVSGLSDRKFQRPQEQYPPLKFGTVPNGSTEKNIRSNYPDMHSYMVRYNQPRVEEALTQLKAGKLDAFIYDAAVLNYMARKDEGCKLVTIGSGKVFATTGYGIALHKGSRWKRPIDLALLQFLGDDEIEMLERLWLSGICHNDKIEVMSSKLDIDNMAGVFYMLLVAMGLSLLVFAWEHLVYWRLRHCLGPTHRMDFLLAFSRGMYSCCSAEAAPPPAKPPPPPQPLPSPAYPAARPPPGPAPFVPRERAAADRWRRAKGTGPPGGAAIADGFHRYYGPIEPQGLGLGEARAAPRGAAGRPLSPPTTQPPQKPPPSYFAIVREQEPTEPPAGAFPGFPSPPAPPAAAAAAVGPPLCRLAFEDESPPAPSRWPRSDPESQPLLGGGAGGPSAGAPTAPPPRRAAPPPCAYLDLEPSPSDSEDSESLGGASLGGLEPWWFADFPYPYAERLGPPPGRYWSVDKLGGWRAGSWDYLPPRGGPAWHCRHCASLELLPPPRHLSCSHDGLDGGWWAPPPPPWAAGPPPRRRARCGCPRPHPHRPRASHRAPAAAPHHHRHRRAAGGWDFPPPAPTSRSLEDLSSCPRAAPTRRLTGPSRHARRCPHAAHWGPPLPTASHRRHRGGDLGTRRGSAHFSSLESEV
UniProt Q00960, 27-1482 limits assumed: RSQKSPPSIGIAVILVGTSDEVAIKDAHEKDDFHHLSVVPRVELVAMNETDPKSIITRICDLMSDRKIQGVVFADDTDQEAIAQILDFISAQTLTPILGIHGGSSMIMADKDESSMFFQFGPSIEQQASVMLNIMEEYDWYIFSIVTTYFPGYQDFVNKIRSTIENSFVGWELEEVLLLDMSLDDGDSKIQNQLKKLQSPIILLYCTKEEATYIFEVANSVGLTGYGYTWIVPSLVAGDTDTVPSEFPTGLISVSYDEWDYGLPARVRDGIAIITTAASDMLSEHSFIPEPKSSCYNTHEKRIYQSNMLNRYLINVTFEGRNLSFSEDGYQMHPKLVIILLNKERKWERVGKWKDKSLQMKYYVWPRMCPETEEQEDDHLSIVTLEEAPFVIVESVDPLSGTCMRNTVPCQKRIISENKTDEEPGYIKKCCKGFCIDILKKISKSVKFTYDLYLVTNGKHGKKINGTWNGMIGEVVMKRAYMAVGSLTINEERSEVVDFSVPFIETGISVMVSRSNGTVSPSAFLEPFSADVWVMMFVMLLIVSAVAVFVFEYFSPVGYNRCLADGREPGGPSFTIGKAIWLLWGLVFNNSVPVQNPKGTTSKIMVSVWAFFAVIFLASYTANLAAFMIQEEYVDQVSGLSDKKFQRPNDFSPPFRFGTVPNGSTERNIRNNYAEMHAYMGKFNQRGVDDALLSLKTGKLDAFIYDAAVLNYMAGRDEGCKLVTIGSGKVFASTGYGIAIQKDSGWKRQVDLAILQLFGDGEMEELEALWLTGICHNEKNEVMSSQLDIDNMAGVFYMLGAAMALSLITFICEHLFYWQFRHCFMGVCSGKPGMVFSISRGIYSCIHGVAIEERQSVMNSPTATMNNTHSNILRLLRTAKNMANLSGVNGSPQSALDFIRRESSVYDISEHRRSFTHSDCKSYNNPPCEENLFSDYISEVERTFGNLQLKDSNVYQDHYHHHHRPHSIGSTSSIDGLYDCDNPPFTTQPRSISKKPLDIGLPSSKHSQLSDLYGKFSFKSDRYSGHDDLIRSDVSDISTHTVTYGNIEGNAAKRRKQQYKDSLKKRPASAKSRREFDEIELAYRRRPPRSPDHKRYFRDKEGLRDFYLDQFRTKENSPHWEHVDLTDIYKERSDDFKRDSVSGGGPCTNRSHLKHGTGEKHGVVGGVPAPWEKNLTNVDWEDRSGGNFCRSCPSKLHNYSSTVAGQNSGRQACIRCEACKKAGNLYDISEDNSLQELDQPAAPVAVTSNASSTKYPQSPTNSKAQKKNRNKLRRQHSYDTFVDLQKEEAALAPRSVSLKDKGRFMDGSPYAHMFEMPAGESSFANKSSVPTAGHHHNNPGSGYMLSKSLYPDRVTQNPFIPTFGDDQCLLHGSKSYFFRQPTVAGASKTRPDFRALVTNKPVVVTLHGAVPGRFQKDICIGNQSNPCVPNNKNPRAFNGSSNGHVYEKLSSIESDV
UniProt Q00959, 23-1464 limits assumed: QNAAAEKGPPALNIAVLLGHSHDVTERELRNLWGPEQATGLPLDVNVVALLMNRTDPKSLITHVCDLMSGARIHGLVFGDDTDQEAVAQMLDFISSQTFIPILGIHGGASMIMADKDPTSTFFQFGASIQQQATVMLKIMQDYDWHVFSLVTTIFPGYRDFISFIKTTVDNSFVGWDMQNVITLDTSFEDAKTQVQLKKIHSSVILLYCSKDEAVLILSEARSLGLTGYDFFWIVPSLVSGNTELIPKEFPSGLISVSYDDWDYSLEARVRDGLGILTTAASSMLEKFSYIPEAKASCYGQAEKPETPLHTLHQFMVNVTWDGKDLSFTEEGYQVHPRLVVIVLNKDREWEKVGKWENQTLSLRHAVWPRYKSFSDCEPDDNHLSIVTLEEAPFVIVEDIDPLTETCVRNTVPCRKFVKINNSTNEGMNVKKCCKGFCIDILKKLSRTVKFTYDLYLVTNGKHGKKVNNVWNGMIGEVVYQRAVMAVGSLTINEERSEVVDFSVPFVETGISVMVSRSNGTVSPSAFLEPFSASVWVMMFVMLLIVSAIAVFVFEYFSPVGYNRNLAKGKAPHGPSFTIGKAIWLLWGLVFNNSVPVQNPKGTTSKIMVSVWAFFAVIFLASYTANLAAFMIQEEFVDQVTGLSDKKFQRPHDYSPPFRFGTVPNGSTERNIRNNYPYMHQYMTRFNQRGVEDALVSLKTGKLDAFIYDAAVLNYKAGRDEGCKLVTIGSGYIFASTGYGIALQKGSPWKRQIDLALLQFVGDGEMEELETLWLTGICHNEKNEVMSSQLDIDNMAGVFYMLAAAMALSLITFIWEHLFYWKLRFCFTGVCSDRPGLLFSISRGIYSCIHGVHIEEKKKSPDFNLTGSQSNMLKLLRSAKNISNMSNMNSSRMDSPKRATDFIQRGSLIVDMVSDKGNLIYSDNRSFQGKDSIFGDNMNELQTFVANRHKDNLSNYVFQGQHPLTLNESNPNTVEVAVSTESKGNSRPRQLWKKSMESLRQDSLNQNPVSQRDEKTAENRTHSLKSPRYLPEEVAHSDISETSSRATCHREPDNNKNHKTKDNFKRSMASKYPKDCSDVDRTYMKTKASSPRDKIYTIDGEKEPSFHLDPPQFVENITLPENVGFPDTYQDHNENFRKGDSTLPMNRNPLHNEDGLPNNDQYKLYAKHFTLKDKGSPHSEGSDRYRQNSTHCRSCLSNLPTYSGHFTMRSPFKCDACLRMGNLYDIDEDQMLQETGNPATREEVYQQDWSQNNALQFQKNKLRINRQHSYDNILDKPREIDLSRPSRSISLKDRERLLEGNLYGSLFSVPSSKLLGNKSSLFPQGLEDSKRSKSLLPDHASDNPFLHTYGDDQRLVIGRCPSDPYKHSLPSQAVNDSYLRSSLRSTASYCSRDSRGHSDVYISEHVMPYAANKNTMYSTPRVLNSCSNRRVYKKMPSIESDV

CC(C)(C)OC(=O)c1c(NC(=O)CC2SC(=N)NC2=O)sc2c1CCCC2 (single isomer, unassigned) [(+)-EU1794-27]
Maximal Degree of Modulation (% of control) [1]: 160 ± 6.2 % of control
Maximal Degree of Modulation (% of control) [2, 6]: 130 ± 4.7 % of control
effect on steady-state GluN1/GluN2D responses in HEK cells [3]: slight inhibitory effect

CC(C)(C)OC(=O)c1c(NC(=O)CC2SC(=N)NC2=O)sc2c1CCCC2 (single isomer, unassigned) [(-)-EU1794-27]
Maximal Degree of Modulation (% of control) [4]: 170 ± 10 % of control
Maximal Degree of Modulation (% of control) [5]: 67 ± 5 % of control
Maximal Degree of Modulation (% of control) [1]: 260 ± 24 % of control
EC50 ([2]; read-out: EC50 (µM) [conf. int.], saturating glutamate/glycine 100/30 µM, mean [95% CI]): 8.2 µM
Maximal Degree of Modulation (% of control) [2, 6]: 340 ± 21 % of control
effect on steady-state GluN1/GluN2D responses in HEK cells [3]: potentiated responses

CCOC(=O)c1c(NC(=O)CC2SC(=N)NC2=O)sc2c1CCCC2 (single isomer, unassigned) [(-)-EU1794-4]
Maximal Degree of Modulation (% of control) [5]: 17 ± 10 % of control
Maximal Degree of Modulation (% of control) [1]: 47 ± 1 % of control
IC50 [2]: 0.46 µM
Maximal Degree of Modulation (% of control) [2, 6]: 54 ± 3 % of control

CCOC(=O)c1c(NC(=O)CC2SC(=N)NC2=O)sc2c1CCCC2 (single isomer, unassigned) [(+)-EU1794-4]
Maximal Degree of Modulation (% of control) [5]: 41 ± 6 % of control
Maximal Degree of Modulation (% of control) [1]: 50 ± 4 % of control
IC50 [2]: 3.5 µM
Maximal Degree of Modulation (% of control) [2, 6]: 47 ± 6 % of control

— publication PMC5967867, “An NMDAR positive and negative allosteric modulator series share a binding site and are interconverted by methyl groups” (eLife, 2018)
